# Measurements published in BindingDB's records for doi:10.7270/Q21G0K51 (University of Carthage, 2017).
# Chains of the proteins cited; added tags and fusions are not shown.
# UniProt Q9N1N9, whole entry: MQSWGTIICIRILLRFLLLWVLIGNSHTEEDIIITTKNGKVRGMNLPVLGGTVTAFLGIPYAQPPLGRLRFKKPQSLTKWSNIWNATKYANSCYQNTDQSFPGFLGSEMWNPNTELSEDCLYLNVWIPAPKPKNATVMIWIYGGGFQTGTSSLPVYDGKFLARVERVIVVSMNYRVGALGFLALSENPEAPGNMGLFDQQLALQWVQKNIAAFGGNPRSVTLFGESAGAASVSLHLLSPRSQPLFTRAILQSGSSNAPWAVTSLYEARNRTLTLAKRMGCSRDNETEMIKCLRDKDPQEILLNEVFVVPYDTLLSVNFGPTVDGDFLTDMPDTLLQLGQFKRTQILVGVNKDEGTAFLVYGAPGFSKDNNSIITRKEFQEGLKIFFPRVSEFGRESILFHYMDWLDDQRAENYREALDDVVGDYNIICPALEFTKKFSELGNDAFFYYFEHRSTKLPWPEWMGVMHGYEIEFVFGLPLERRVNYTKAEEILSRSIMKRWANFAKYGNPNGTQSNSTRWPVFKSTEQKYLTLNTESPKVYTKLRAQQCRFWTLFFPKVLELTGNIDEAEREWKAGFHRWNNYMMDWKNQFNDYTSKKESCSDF
# Molecular target: Carboxylic ester hydrolase (Equus caballus, UniProt Q9N1N9)
# Experiment: Cholinesterase Activity Assay
# Protocol: The eight synthesized dialkyl-3-cyanopropylphosphates (3a-h) were dissolved in0.01 M dimethyl sulphoxide and then diluted in demineralized water to 1 mM and 0.1 mM.
smiles,measurement,value
CCN(C)C(=O)Oc1cccc([C@H](C)N(C)C)c1 [3-[(1S)-1-(dimethylamino)ethyl]phenyl N-ethyl-N-methylcarbamate],IC50,32.5 µM
